Our source for the DC50 values is patent publication US20250375526A1, “IRAK DEGRADERS AND USES THEREOF” (Kymera Therapeutics, Inc., priority 2020, published 2025).

Sequences of proteins named here, by UniProt entry; tags and fusion partners are left off.
UniProt Q9NWZ3, whole entry: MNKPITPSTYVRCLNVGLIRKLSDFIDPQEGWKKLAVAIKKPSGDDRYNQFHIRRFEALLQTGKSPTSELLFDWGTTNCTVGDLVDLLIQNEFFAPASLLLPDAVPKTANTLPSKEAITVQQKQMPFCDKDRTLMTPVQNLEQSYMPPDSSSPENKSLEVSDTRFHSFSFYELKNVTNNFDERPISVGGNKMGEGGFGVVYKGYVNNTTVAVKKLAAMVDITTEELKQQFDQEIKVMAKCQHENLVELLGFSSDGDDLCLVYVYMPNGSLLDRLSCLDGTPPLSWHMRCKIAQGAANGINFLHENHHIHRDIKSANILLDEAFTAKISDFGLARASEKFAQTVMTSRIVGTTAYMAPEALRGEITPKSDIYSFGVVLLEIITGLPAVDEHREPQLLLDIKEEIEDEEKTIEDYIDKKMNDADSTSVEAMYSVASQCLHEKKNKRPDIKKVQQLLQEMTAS

Bounds are passed on as bounds.

This test concerns the target IRAK4 (Homo sapiens, UniProt Q9NWZ3). In words: OCI-LY10 IRAK MSD assay DC50 (IRAK4 degradation). The conditions noted are these: read-out: OCI-LY10 IRAK4 DC50, OCI-Ly10 cells, incubated for 4 hr, concentration of compound required to degrade 50% of protein. On the procedure: A MSD assay is run to determine the concentration of compound required to degrade 50% of protein (DC50).
• Compounds were reconstituted to 10 mM in stock solutions. The stock solutions were diluted to 5 mM and 45 μL of each dilution was transferred to a 384 pp-plate. […]
• The MSD coated plate was washed 3× (150 μL/well) with 1×TBST (CST #9997S). • The MSD plate was then blocked with 150 μL of blocking buffer [3% Blocker A (MSD, R93BA-4) in TBST]/well and shaken for 1 hr at RT and 600 rpm. • The MSD plate was washed 3× (150 μL/well) with 1×TBST. […] The plate was then shaken for 1 hr at RT and 600 rpm. • The MSD plate was then washed 3× (150 μL/well) with 1×TBST. • 1×MSD reading buffer was then added (150 μL/well) and the plate […].
(MSD, R92TC-2) • The MSD instrument was then read.
The remaining activity was calculated following the formula below:
• The DC50 was calculated by fitting the Curve using Xlfit (v5.3.1.3), equation 201: […]

With `O=C1CCN(c2cncc3c(C4CCN(C[C@H]5CC[C@H](n6cc7cc(NC(=O)c8cccc(C(F)(F)F)n8)ncc7n6)CC5)CC4)cccc23)C(=O)N1`, the DC50 fell in the range of 10 to 100 nM. For `COc1cc2nc([C@H]3CC[C@H](CN4CCC(c5ccn6c(N7CCC(=O)NC7=O)cnc6c5C)CC4)CC3)sc2cc1NC(=O)c1cccc(C(F)(F)F)n1` the value was below 10 nM.
